Experimental data as given in patent US20230129084A1, “COMPOSITE IMPLANTS” (Re-Vana Therapeutics Ltd., priority 2015, published 2023).

Key:
[1] = In vitro drug release from in situ photocrosslinked implants (ISPcI) in PBS; conditions: 30% PLGA/69.4% w/w PEGDA700 ISPcI crosslinked for 5 min, after 200 days
[2] = In vitro drug release from preformed photocrosslinked implants (PPcI) in PBS; type: physicochemical; conditions: PPcI 30% w/w PLGA 75/25 / PEGDA 700, 5 runs, lamp intensity 100%, after 266 days

bovine serum albumin [BSA]
BSA released [1]: ~86% | % release [2]: approx. 72%
